Consider 1 molecule from patent US20260078146A1, “EPHA2 TARGETING AGENTS AND USES THEREOF” (The Regents of the University of California, priority 2022, published 2026).

Protein sequences, listed by entry. Tags and fused reporters are not part of them. Residues count along the entry.
UniProt P29317, 27-200 limits assumed: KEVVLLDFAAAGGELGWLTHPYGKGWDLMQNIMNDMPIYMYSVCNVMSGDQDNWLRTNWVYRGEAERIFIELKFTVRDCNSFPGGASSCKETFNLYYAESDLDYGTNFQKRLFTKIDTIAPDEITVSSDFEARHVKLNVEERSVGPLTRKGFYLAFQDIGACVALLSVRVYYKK

The target of test [1] is T1, EphA2 ligand binding domain (EphA2-LBD), recombinant (UniProt P29317 27-200, limits assumed).
T1 construct: also called EphA2 protein; isolated EphA2-LBD
The test is described as follows: ITC. On the technique in general: In ITC the heat of successive injections is recorded.

Test [2] has as its target T1, EphA2 ligand binding domain …. The test is described as follows: DELFIA displacement (assay not given); competitor: immobilised biotinylated peptide m48.

B1: 152B12 (35) (peptide)
peptide: YSAXPDSXPFRP
modifications: N-terminal PiperazineAcAcid cap; X4 = 2Me-Bip (4-(2-methylphenyl)-L-phenylalanine); X8 = Chg; C-terminal CONH2
Regarding B1, the Kd – broadly, the concentration at which binding is half-saturated – in test [1] amounted to 8.6 nM. For the same molecule, the concentration for half-maximal inhibition (IC50) (commonly the concentration needed to halve the response being measured) in test [2] stood at 22.7 nM.
